# The list shows a part of the results, in another mix than the full data. Calls of active or inactive are those of the source. Rule as the data show it: active = inhibition above about 23%; inactive = the rest.
# Test: compounds interfering with TAMRA-BSA probe, counter-screen for TCR-CD3 interaction inhibitor project, biochemical, fluorescence, TAMRA-labeled BSA (AID 652035);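 also: 0% = buffer low control and 100% = reference high control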
# Conditions: TAMRA-labeled BSA probe fluorescence counterscreen; at 9.4 µM; hits give high values
row,SMILES,inhibition
1,Nc1cccc2c([As](=O)(O)O)cccc12,active: 39.2%

# — PubChem BioAssay AID652035 (The Scripps Research Institute Molecular Screening Center, 2013)
